Here are results for three compounds from publication PMC10184130.

Read-outs that look alike come from different tables or passages of the source.

One data set deals with T1, human C1s (Homo sapiens, UniProt P09871).
T1 construct: Recombinant human C1s (358–688 aa) fused with both the N-terminal IgG signal peptide; IgG signal peptide (N); His tag (C); made in house; host or cells: HEK293 cells
T1 sequence (P09871 358-688): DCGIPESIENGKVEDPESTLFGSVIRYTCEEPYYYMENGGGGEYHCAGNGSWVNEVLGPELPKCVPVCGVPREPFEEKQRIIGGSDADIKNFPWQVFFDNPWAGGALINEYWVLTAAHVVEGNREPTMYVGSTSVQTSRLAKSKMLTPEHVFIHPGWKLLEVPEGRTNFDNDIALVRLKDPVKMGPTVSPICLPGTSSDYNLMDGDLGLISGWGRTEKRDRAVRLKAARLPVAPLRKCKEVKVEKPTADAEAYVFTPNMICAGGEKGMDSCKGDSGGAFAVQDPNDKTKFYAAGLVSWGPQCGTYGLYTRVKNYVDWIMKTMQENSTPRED
In words: Human C1s enzyme assay. It counts as biochemical. The method, then: Recombinant human C1s (358–688 aa) fused with both the N-terminal IgG signal peptide and the C-terminal His tag was expressed in HEK293 cells and purified. The assay was performed in a 384-well clear plate in a total volume of 20 μL of an assay buffer 1 [50 mmol/L Tris–HCl (pH 7.5), 150 mmol/L NaCl, 0.01% (w/v) Tween 20, and 0.01% (w/v) BSA]. Compounds were dissolved in DMSO and diluted to various concentrations. After 20 nL of compound solution was added to the plate, 10 μL of substrate solution containing a 250 μmol/L Z-Lys-SBzl peptide (Watanabe Chemical, Hiroshima, Japan) and 250 μmol/L DTNB (5,5′-dithiobis(2-nitrobenzoic acid)) (Sigma, MO, USA) was added to the plate. Then, 8 nmol/L human C1s was added to the plate and incubated at room temperature for 60 min. The absorbance at 405 nm was detected using an EnVision multilabel plate reader. […] The IC50 values were calculated using IDBS XLfit software.

The nature of data set [1]: Pharmacokinetics analysis in mice (oral; plasma and brain). It counts as in vivo. Conditions: plasma. The method, then: Male C57BL/6J mice were purchased from The Jackson Laboratory Japan, Inc. (Kanagawa, Japan). All animals were with free access to food and water prior to the treatment and were healthy throughout the experimental period. The compound was dissolved in 10% DMSO/10% Cremophor EL/20% PEG400/60% 0.1 mol/L citric acid solution and administered orally at doses of 10, 30, or 100 mg/kg. Blood samples were collected into heparinized tubes at the designated time points (0.5, 1, 2, 4, 8, and 24 h postdosing), and brains were also collected at 2 and 24 h postdosing. Plasma was separated from the blood samples by centrifugation. The plasma and brain concentrations were quantified with high-performance liquid chromatography–tandem mass spectrometry. The lower limit of quantitation was 1 ng/mL for plasma and 5 ng/mL for brains.

Broadly, the inhibition is the share of the control response that was lost under treatment. As to `Cc1ccc(C(=O)N2CCN(c3ccc4cnccc4c3)CC2)cc1` [Compound 4a, [4-(Isoquinolin-6-yl)piperazin-1-yl](4-methylphenyl)methanone], on human C1s (read-out: human C1s % inhibition at 30 μM), the inhibition at 30 µM is 49%.

`O=C(c1cccc(Br)c1)N1CCN(c2ccc3cnccc3c2)CC1` [Compound 3]: the inhibition at 30 µM on human C1s (read-out: human C1s % inhibition at 30 uM, at 30 uM, supplementary csv) turned out to be 44%. Usually Tmax stands for the time at which the peak concentration occurs. As for `Cc1cc([C@H]2CN(c3cc(F)c4c(N)nncc4c3)CCN2c2cccc(F)c2)no1` [Compound (R)-8, 8-Fluoro-6-[(3R)-4-(3-fluorophenyl)-3-(5-methyl-1,2-oxazol-3-yl)piperazin-1-yl]phthalazin-1-amine], the Tmax stood at 1.67 ± 0.58 h in data set [1] (10 mg/kg), 2.67 ± 1.15 h in data set [1] (30 mg/kg) and 4.00 ± 0.00 h in data set [1] (100 mg/kg).
